The record followed here is US20100261711A1, “SELECTIVE ANTICONVULSANT AGENTS AND THEIR USES” (WiSys Technology Foundation, priority 2009, published 2010).

Holding throughout (test): Competitive binding assay, [3H]flunitrazepam
The target in experiment [1] is GABAA/α1 (α1β3γ2 GABAA receptors) (Homo sapiens, UniProt P14867+P18507). To be noted: read-out: Binding Affinity at GABAA/α1; αxβ3γ2, [3H]flunitrazepam competition.
In experiment [2] the target is GABAA/α2 (α2β3γ2 GABAA receptors) (Homo sapiens, UniProt P18507+P47869). The note with it: read-out: Binding Affinity at GABAA/α2; αxβ3γ2, [3H]flunitrazepam competition.
Experiment [3] deals with GABAA/α3 (α3β3γ2 GABAA receptors) (Homo sapiens, UniProt P18507+P34903). To be noted: read-out: Binding Affinity at GABAA/α3; αxβ3γ2, [3H]flunitrazepam competition.
Experiment [4] has as its target GABAA/α4 (α4β3γ2 GABAA receptors) (Homo sapiens, UniProt P18507+P48169). To be noted: read-out: Binding Affinity at GABAA/α4; αxβ3γ2, [3H]flunitrazepam competition.
Experiment [5] has as its target GABAA/α5 (α5β3γ2 GABAA receptors) (Homo sapiens, UniProt P18507+P31644). The note with it: read-out: Binding Affinity at GABAA/α5; αxβ3γ2, [3H]flunitrazepam competition.
In experiment [6] the target is GABAA/α6 (α6β3γ2 GABAA receptors) (Homo sapiens, UniProt P18507+Q16445). The note with it: read-out: Binding Affinity at GABAA/α6; αxβ3γ2, [3H]flunitrazepam competition.

On to `C#Cc1ccc2c(c1)C(c1ccccc1)=NCC1=N/C(=C\N3CCN(C)CC3)C(=O)N12`, for which the Ki in experiment [1] is 193 nM; in experiment [2], 35 nM; in experiment [3] it was 434 nM; in experiment [4] it was more than 5000 nM; in experiment [5], 22 nM; in experiment [6] it was more than 5000 nM.
